{"source": "paper PMC3597730", "about": "“Novel Phenolic Inhibitors of Small/Intermediate-Conductance Ca^2+-Activated K^+ Channels, KCa3.1 and KCa2.3” (PLoS ONE, 2013)", "target": "T1, cloned human KCa3.1 channel (Homo sapiens, UniProt O15554)", "T1 construct": "expressed in transfected cells; gift of Khaled Houamed, University of Chicago", "assay": "Inside-out patch recordings from hKCa3.1-overexpressing HEK293 cells", "type": "biochemical", "details": "inside-out patches; compound 1 µM", "note": "Entries after “also recorded” stand apart in the source; their conditions may differ."}
{"smiles": "Clc1ccccc1C(c1ccccc1)(c1ccccc1)n1cccn1", "note": "[TRAM-34, 1-[(2-chlorophenyl) (diphenyl)methyl]-1H-pyrazole, reference compound]", "values": [{"measurement": "hKCa3.1 blocking effect (in words)", "result": "complete channel blockade; also recorded: complete block"}]}
